Test system: androgen receptor (AR)
Test: Quantitative RT-PCR of AR target genes (PSA, hK2, TMPRSS2) in 22Rv1 cells

Structure (SMILES): CNC(=O)c1ccc(N2C(=S)N(c3ccc(C#N)c(C(F)(F)F)c3)C(=O)C2(C)C)cc1F [enzalutamide]
- androgen-mediated activation of the AR target genes PSA and hK2 (1 nM DHT, 10 μM bicalutamide or 1 μM enzalutamide): able to antagonize
- constitutive, androgen-independent expression of PSA and hK2 (castrate conditions): not by manipulations that block full-length AR
